# Binding of CDR-mutated scFvs to a peptide of the spike HR2 region

Reference: Engelhart et al. 2022, doi:10.1038/s41597-022-01779-4. File: FLAb, binding data.

All variants were tested on one target, the spike HR2 peptide PDVDLGDISGINAS (SARS-CoV-2).

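Phage display of a naive human antibody library on the peptide gave the parent. AAYL52 was designed without a model: most single CDR substitutions and a random sample of double and triple ones. AlphaSeq pools MATa yeast showing the antibodies with MATalpha yeast showing the peptide. After mating in shaken culture at 30 °C for 16 h, diploids were selected and their barcode pairs sequenced. A regression on co-assayed BCL2-family reference pairs converts the normalised counts of each replicate to an apparent Kd. Mating was done three times.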

Parent scFv Ab-95: VH joined to VL by a (GGGGS)3 linker. Changes lie in the light chain CDRs alone.
VH: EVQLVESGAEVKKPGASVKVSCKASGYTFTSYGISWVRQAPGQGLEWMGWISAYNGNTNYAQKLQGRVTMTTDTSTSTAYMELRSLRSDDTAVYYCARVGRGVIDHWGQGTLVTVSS
VL: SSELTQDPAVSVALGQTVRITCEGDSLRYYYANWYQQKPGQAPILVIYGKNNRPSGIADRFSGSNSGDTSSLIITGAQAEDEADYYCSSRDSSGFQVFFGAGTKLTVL

The parent's light chain CDRs are EGDSLRYYYAN, GKNNRPS, SSRDSSGFQVF; each variant's own CDRs replace them letter for letter.
All variants listed here change R53 of the VL, counted from its first residue.
Kd is apparent (estimated from mating counts) and averaged on the log scale over replicates with a signal. Smaller is tighter.
"nd" means that the variant was in the library but no mating with the target was seen in any replicate; the authors take this as a sign of poor binding, and no number exists.
For reference, the parent read 200 nM as the reference entry and 180 nM as a member of this library.
Empty control strains, which show no peptide, gave a signal in 28% of pairings with library AAYL52; the median was 8.2 µM and 95% of these signals were weaker than 800 nM. No background was subtracted.

With EGDSLRYKYAN / GKNNWPS / SSRHSSGFQVF the result was 2.7 µM (2 of 3 replicates).
With ENDSLRYYSAN / GKNNEPS / SSRDSSGFQVF the result was 170 µM (2 of 3 replicates).
With EGDSLFYYYAN / GKDNKPS / SSRDSSGFQVF the result was 5.4 µM (3 of 3 replicates).
With EGDSLRYYYAN / GKTNCPS / SSRDSSGVQVF the result was 13 µM (2 of 3 replicates).
With EGDSLRYYYAN / GKNNWPS / SSRLSSGFQVF the result was nd (0 of 3 replicates).
With EGDSLRYYYAI / GGNNSPS / SSRDSSGFQVF the result was 4.5 µM (1 of 3 replicates).
With EGDSKRYYYAN / GKNNNPS / SSRDFSGFQVF the result was 2.3 µM (1 of 3 replicates).
With EGDSLRYYYAN / GKWNNPS / SSRVSSGFQVF the result was 41 µM (3 of 3 replicates).
With EGDSLRYYYAN / GINNLPH / SSRDSSGFQVF the result was 11 µM (3 of 3 replicates).
With EGYSLRYYYAN / GKNNFPS / SSRDSSGFMVF the result was 5.0 µM (2 of 3 replicates).
With EPDSLRYYYAN / GKNNDPS / SSRDSSGFQVI the result was 39 µM (3 of 3 replicates).
With EGDSLRYYYAN / GKNNHPL / SSRDSSGFGVF the result was 2.4 µM (3 of 3 replicates).
With EGDSLRYYYAN / GKNNQPQ / SSRDSSGFPVF the result was 30 µM (3 of 3 replicates).
With EGDSSRYYYAN / GPNNYPS / SSRDSSGFQVF the result was 9.7 µM (1 of 3 replicates).
With EGDSLRYYYAN / GKNNVPS / SSRDSSGFQVF the result was 890 nM (3 of 3 replicates).
With EGDSLRYYYAN / GKNNSDS / SSRDSSGYQVF the result was 1.1 µM (3 of 3 replicates).
With EGDSLRYYYAN / GKNAFPS / SSRDSSGFQVF the result was 22 µM (2 of 3 replicates).
With EGDSLRSYYAN / GKNNWPS / SSRDYSGFQVF the result was 4.1 µM (1 of 3 replicates).
With EGDSLRRYYAN / GKNNPPS / SSRASSGFQVF the result was 11 µM (2 of 3 replicates).
With EWDSLRYYYAN / GKNNFPS / SIRDSSGFQVF the result was 170 µM (1 of 3 replicates).
With EGDSHRYYYAN / GKNNEPS / SSRDSAGFQVF the result was nd (0 of 3 replicates).
With EGDSLRYFYAN / GKNNEPS / SSRCSSGFQVF the result was 4.2 µM (2 of 3 replicates).
With EGDSLRYYYAN / GKNNAPS / SSRDCSGFQKF the result was 2.7 µM (1 of 3 replicates).
With EGDSLRYYIAN / GKNNQPS / SSRDSSGFQVV the result was 22 µM (2 of 3 replicates).
With EGDSLRYYTAN / GKNNPPM / SSRDSSGFQVF the result was 28 µM (2 of 3 replicates).
With EGDSLRYYYAN / HKNNYPS / SSRDSSGFQVV the result was 5.2 µM (1 of 3 replicates).
With EGDSLRYYYAN / GKNNPPS / SSRDSEGFHVF the result was nd (0 of 3 replicates).
With EGDSLRYYYAL / GKNNNPS / SSRDSSGFQLF the result was 16 µM (1 of 3 replicates).
With EGDSLRYKYAN / GKDNVPS / SSRDSSGFQVF the result was 70 nM (3 of 3 replicates).
With EGDSLRYYYAN / GKNNIPS / SSTDSSGFQVF the result was 8.6 µM (1 of 3 replicates).
With EGDSLRYYPAH / GKNNEPS / SSRDSSGFQVF the result was 1.6 µM (3 of 3 replicates).
With EGDSLRYYYAN / GKNNGPE / SSRISSGFQVF the result was nd (0 of 3 replicates).
With EGDSLRYYYAN / GKNNLPS / SSIISSGFQVF the result was 6.1 µM (1 of 3 replicates).
With EGDSLRYYYHN / GKNNAPS / SPRDSSGFQVF the result was 5.8 µM (3 of 3 replicates).
With VGDSLGYYYAN / GKNNTPS / SSRDSSGFQVF the result was 1.5 µM (3 of 3 replicates).
With EGDMLRYYYKN / GKNNEPS / SSRDSSGFQVF the result was 62 µM (1 of 3 replicates).
With EGDSLRSYYAN / GKNNKPP / SSRDSSGFQVF the result was 11 nM (3 of 3 replicates).
With EGDLLRYYYAN / GKNNAPS / SSRDSSGFQVN the result was 3.4 µM (1 of 3 replicates).
With EIDSLRYYSAN / GKNNQPS / SSRDSSGFQVF the result was 14 µM (2 of 3 replicates).

Repeated from above, the 3 best binders with a signal in all replicates:

| CDR-L1 | CDR-L2 | CDR-L3 | Kd | replicates with signal |
|---|---|---|---|---|
| EGDSLRSYYAN | GKNNKPP | SSRDSSGFQVF | 11 nM | 3/3 |
| EGDSLRYKYAN | GKDNVPS | SSRDSSGFQVF | 70 nM | 3/3 |
| EGDSLRYYYAN | GKNNVPS | SSRDSSGFQVF | 890 nM | 3/3 |